These results are taken from PubChem BioAssay AID2606 (The Scripps Research Institute Molecular Screening Center, 2010).

Chains of the proteins cited; added tags and fusions are not shown.
UniProt P9WHR9, whole entry: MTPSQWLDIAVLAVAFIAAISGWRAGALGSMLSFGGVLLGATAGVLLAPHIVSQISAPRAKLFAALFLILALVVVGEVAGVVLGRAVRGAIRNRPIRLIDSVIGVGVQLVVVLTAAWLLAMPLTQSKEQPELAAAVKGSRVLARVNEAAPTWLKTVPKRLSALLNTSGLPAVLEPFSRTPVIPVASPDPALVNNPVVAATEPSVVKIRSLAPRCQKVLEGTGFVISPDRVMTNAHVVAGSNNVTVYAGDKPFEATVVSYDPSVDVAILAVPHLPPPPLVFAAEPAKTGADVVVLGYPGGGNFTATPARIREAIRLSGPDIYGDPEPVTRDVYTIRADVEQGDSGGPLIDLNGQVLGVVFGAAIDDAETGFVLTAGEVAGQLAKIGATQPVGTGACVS

This is a selection; strong and weak results do not stand in their true shares. Some of these compounds have results that are not shown, active ones among them. The source made the active and inactive calls. Rule as the data show it: active = inhibition above about 38%; inactive = the rest.

The target in this assay is Serine protease Rv3671c (Mycobacterium tuberculosis (strain ATCC 25618 / H37Rv)) (UniProt P9WHR9). The assay is described as follows: inhibition of M. tuberculosis membrane protease Rv3671c – biochemical, fluorescence polarization, M. tuberculosis H37Rv, primary screen (AID 2606).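 Also: extracellular domain of Rv3671c used as enzyme; 0% = enzyme with DMSO and 100% = no enzyme.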 The conditions noted are these: at 5.96 µM; stronger effect = higher value.
Usually inhibition stands for the relative decrease from the control value, in per cent. For `O=C(OC1CN2CCC1CC2)C(CO)(c1ccccc1)c1ccccc1` (centres undefined), the inhibition was inactive: 3.34%.
Next, `COc1ccc(Br)c(C(=O)NCC2(N3CCCCC3)CCCCC2)c1`: inactive: -4.48%; `CC(C)Oc1ccc(C(=O)NCC2(N(C)C)CCCCC2)cc1`: inactive: 3.81%.
Then `CN(C)c1cccc(C(=O)NCC2(N(C)C)CCCCC2)c1`, with inactive: -0.58%; and `CN(C)C1(CNC(=O)c2ccc(Br)cc2)CCCCC1`, with inactive: 5.3%.
With `COc1cc(C(=O)NCC2(N(C)C)CCCCC2)c([N+](=O)[O-])cc1OC`, the inhibition was inactive: -20.2%.
Next, `COc1cccc(C(=O)NCC2(N3CCCCC3)CCCCC2)c1`: inactive: 2.19%.
Next, `COc1ccc(Cl)cc1C(=O)NCC1(N(C)C)CCCCC1`: inactive: 3.39%; `O=C(NCC1(N2CCCCC2)CCCCC1)c1cccc(Cl)c1`: inactive: -0.34%.
Then `Cc1ccccc1C(=O)NCC1(N2CCCCC2)CCCCC1`, with inactive: -10.8%; and `CN(C)c1ccc(C(=O)NCC2(N(C)C)CCCCC2)cc1`, with inactive: -3.72%; and `CN(C)C1CCCC1OC(=O)C(O)(c1ccccc1)c1ccccc1` (centres undefined), with inactive: -1.18%.
With `C=CCN1CCN(CCOC(=O)C(O)(c2ccccc2)c2ccccc2)CC1`, the inhibition was inactive: -0.64%.
Next, `O=C(NCC1(N2CCCCC2)CCCCC1)c1cc(F)c(F)cc1Cl`: inactive: -0.79%; `COc1ccc(C(=O)NCC2(N(C)C)CCCCC2)cc1`: inactive: 0.17%; `CCN1CCCC(OC(=O)C2(O)c3ccccc3C=Cc3ccccc32)C1` (centres undefined): inactive: 4.82%.
As for `Cc1cc(C(=O)NCC2(N3CCCCC3)CCCCC2)ccc1[N+](=O)[O-]`, the inhibition is inactive: 1.8%.
As for `O=C(NCC1(N2CCCCC2)CCCCC1)c1cccc(Br)c1`, the inhibition was inactive: 1.02%.
Take `O=C(NCC1(N2CCCCC2)CCCCC1)c1cc([N+](=O)[O-])ccc1Cl`: the inhibition is inactive: -0.12%.
Then `CN1[C@@H]2CC[C@H]1CC(OC(=O)C(O)(c1ccccc1)c1ccccc1)C2` (some centres undefined), with inactive: -6.4%; and `CCN(CC)CC(C)C(C)OC(=O)C(O)(c1ccccc1)c1ccccc1` (centres undefined), with inactive: -2.87%; and `COc1cc(SC)ccc1C(=O)NCC1(N(C)C)CCCCC1`, with inactive: -0.7%.
Take `CC(C)N1C(=O)CC2(CCN(CCOC(=O)C(O)(c3ccccc3)c3ccccc3)CC2)C1=O`: the inhibition was inactive: 4.77%.
With `Cc1ccc(C(=O)NCC2(N3CCCCC3)CCCCC2)cc1`, the inhibition is inactive: 1.11%.
